Earlier results on one molecule are cited in patent publication US20240011094A1, “METHODS FOR DIAGNOSIS AND TREATING POLYCYSTIC OVARY SYNDROME (PCOS)” (INSTITUT NATIONAL DE LA SANTÉ ET DE LA RECHERCHE MÉDICALE, priority 2020, published 2024).

Amino acid sequences for entries named in this document (tags omitted). A change or cut given only in a name is not applied to a line headed by its entry.
UniProt Q3URK3: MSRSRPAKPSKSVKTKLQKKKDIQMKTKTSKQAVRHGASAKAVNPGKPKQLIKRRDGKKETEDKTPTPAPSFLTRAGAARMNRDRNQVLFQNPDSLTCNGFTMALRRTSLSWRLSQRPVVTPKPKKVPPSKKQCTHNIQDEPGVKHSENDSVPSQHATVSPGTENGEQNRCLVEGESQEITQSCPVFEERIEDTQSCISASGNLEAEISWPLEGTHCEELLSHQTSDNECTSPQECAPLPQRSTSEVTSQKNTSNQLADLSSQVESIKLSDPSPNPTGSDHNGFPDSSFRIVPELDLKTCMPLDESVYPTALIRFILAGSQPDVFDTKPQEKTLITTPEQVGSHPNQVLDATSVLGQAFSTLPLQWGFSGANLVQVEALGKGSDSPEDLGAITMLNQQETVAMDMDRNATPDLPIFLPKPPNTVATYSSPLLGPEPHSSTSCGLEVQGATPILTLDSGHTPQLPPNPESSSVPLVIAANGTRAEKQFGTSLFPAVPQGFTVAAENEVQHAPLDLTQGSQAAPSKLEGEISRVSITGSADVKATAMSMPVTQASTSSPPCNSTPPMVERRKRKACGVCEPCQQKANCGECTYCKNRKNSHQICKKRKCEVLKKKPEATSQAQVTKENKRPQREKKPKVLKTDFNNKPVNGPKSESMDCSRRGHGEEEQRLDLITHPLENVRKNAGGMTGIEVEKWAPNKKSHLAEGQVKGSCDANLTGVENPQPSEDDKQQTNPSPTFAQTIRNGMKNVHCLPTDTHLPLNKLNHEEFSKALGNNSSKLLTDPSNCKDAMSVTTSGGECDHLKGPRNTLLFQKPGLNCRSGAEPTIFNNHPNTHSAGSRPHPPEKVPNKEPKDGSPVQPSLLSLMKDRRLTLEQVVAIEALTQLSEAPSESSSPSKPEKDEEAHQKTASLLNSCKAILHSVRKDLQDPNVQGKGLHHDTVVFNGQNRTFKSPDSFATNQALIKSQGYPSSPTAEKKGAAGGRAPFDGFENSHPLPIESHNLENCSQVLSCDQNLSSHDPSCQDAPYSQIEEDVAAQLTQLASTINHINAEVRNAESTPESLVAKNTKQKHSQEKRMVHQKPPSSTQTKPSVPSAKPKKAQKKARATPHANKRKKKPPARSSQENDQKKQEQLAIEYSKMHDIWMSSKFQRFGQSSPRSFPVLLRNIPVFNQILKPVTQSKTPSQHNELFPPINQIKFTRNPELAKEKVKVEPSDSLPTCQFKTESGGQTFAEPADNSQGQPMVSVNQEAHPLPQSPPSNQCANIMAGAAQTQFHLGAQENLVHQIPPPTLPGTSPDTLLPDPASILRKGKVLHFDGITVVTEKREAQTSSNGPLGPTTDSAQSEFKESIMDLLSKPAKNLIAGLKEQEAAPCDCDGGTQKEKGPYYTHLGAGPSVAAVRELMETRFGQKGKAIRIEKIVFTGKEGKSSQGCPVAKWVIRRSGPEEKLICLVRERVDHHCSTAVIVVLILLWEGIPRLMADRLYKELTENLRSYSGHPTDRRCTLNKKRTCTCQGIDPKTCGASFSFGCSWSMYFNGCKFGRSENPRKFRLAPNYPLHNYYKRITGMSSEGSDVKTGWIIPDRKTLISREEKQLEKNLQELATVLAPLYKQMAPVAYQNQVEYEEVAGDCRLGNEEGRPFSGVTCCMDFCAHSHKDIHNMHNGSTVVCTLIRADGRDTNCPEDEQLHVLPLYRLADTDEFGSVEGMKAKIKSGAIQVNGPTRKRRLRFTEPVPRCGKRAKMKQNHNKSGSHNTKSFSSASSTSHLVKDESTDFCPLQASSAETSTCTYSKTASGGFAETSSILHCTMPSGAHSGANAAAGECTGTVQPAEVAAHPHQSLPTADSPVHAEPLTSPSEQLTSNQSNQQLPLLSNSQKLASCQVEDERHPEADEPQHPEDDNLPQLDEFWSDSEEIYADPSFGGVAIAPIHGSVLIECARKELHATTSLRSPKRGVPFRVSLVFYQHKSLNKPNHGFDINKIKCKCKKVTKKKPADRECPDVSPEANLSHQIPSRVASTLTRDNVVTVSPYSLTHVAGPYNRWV

The target in this data set is mTET1 (Mus musculus, UniProt Q3URK3). The following applies: cited from earlier work.

One may read the IC50 as the point on the concentration scale where inhibition reaches its midpoint. For `O=C(O)CC[C@H](O)C(=O)O` [Molecule 29, L-2-hydroxyglutaric acid], the IC50 is 1000 µM.
